Source: patent US8889709B2, “Use of isoQC inhibitors in the treatment and prevention of inflammatory diseases or conditions” (Probiodrug AG, priority 2006, dated 2014)

Chains of the proteins cited; added tags and fusions are not shown. Residues count along the entry.
UniProt Q9NXS2, 48-382 I73N/C369A: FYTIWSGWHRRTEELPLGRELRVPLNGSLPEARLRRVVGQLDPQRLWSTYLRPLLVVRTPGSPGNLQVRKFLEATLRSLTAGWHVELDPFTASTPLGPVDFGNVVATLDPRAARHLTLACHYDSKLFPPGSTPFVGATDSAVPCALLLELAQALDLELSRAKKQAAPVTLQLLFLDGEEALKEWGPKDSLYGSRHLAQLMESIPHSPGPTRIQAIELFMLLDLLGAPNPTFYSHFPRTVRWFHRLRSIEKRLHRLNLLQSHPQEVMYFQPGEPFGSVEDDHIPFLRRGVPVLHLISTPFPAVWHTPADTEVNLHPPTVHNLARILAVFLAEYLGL

Target: human isoQC (Homo sapiens, UniProt Q9NXS2, C369A/I73N)
Assay: Inhibitor assay, human isoQC (Ki/IC50, competitive inhibition)

With `c1c[nH]cn1` [Imidazole] the Ki was 235 ± 13 µM.
